In ChEMBL document CHEMBL1123268 (J Med Chem, 1986):

Legend:
L1210 [1] = assay: Compound was tested for anticancer activities against L1210 leukemia in CD2F1 male mice at dose of 25 mg/kg per day; 7.7/7
P388 [2] = assay: Antineoplastic activity against P388 leukemia in CD2F1 male mice and the percent increase in life span was measured on day 30.
L1210 [3] = assay: Compound was tested for anticancer activities against L1210 leukemia in CD2F1 male mice at dose of 25 mg/kg per day
L1210 [4] = assay: Compound was tested for anticancer activities against L1210 leukemia in CD2F1 male mice at dose of 25 mg/kg per day; 0/6
P388 [5] = assay: Antineoplastic activities against P388 leukemia in CD2F1 male mice.; assay type: functional, Mus musculus
Procedure, shortened: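 P388 leukemia: CD2F1 male mice (18-20 g, six per group) received 10^6 cells ip on day 0. Drug injected ip daily on days 1-9. Survival followed 30 days, with some groups to 60 days. Activity read as treated/control mean survival time (T/C), with %ILS calculated as [(T - C)/C] × 100. NCI protocol.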

P388 [6] = assay: Number of cures from P388 leukemia in CD2F1 male mice as tumor-free survivors after day 60.
L1210 [7] = assay: Anticancer activities against L1210 leukemia in CD2F1 male mice at dose of 50 mg/kg per day
L1210 [8] = assay: Compound was tested for anticancer activities against L1210 leukemia in CD2F1 male mice at dose of 50 mg/kg per day; 9.3/7
P388 [9] = assay: Compound was tested for its antineoplastic activities against P388 leukemia in CD2F1 male mice.
P388 [10] = assay: Compound was tested for its antineoplastic activity against P388 leukemia in CD2F1 male mice and the percent increase in life span was measured on day 30.
L1210 [11] = assay: Compound was tested for anticancer activities against L1210 leukemia in CD2F1 male mice at dose of 50 mg/kg per day
L1210 [12] = assay: Compound was tested for anticancer activities against L1210 leukemia in CD2F1 male mice at dose of 50 mg/kg per day; 0/6
P388 [13] = assay: Antineoplastic activity against P388 leukemia in CD2F1 male mice and the average percentage weight change on day 5 was measured.
P388 [14] = assay: Compound was tested for number of cures from P388 leukemia in CD2F1 male mice as tumor-free survivors after day 60; 2/6
[15] = Therapeutic ratio as optimum dose/dose ILS40
Procedure, shortened: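 Therapeutic ratio derived from the P388/L1210 survival data (CD2F1 male mice, ip daily dosing days 1-9). Optimum dose is the daily dose giving maximum increase in life span. ILS40 dose is the daily dose giving a 40% increase in life span over controls.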

L1210 [16] = assay: Compound was tested for anticancer activities against L1210 leukemia in CD2F1 male mice at dose of 25 mg/kg per day; 6.4/7
L1210 [17] = assay: Compound was tested for anticancer activities against L1210 leukemia in CD2F1 male mice at dose of 25 mg/kg per day; 8.2/7
L1210 [18] = assay: Compound was tested for anticancer activities against L1210 leukemia in CD2F1 male mice at dose of 50 mg/kg per day; 8.6/7
L1210 [19] = assay: Compound was tested for anticancer activities against L1210 leukemia in CD2F1 male mice at dose of 50 mg/kg per day; 7.0/7
L1210 [20] = assay: Compound was tested for anticancer activities against L1210 leukemia in CD2F1 male mice at dose of 50 mg/kg per day; 7.4/7
L1210 [21] = assay: Compound was tested for anticancer activities against L1210 leukemia in CD2F1 male mice at dose of 50 mg/kg per day; 9.0/7
L1210 [22] = assay: Compound was tested for anticancer activities against L1210 leukemia in CD2F1 male mice at dose of 50 mg/kg per day; 7.1/7

Compound: O=C(NC12CC3CC(CC(C3)C1)C2)NP(=O)(N1CC1)N1CC1
- T/C survival days (L1210 [1]): 7.7
- ILS (P388 [2]): 35%
- ILS (L1210 [3]): 10%
- T/C (L1210 [3]): 110%
- Survivors at day 30 (L1210 [4]): 0
- Optimal dose (P388 [5]): 60
- Cures (survivors/total) (P388 [6]): 0

Compound: CC1(C)CC(NC(=O)NP(=O)(N2CC2)N2CC2)CC(C)(C)N1O
- ILS (L1210 [7]): 33%
- ILS (P388 [2]): 153%
- T/C survival days (L1210 [8]): 9.3
- ILS40 (mg kg-1 day-1) (P388 [9]): 16
- ILS max (P388 [10]): 292%
- Optimal dose (P388 [5]): 100
- T/C (L1210 [11]): 133%
- Survivors at day 30 (L1210 [12]): 0
- Weight change on day 5 (P388 [13]): -4.5%
- Cures (survivors/total) (P388 [14]): 2
- Therapeutic ratio [15]: 6.2

Compound: CC1(C)CN1P(=O)(NC(=O)NC12CC3CC(CC(C3)C1)C2)N1CC1(C)C (stereo not given)
- ILS (P388 [2]): 32%
- ILS (L1210 [3]): -8%
- T/C (L1210 [3]): 92%
- Survivors at day 30 (L1210 [4]): 0
- Optimal dose (P388 [5]): 60
- Cures (survivors/total) (P388 [6]): 0
- T/C survival days (L1210 [16]): 6.4
- Weight change on day 5 (P388 [13]): 14%

Compound: CC1(C)CC(NC(=O)NP(=O)(N2CC2)N2CC2)CC(C)(C)N1
- ILS (L1210 [7]): 23%
- ILS (P388 [2]): 157%
- T/C survival days (L1210 [17]): 8.2
- ILS40 (mg kg-1 day-1) (P388 [9]): 17.5
- ILS max (P388 [10]): 224%
- ILS (L1210 [3]): 17%
- T/C (L1210 [3]): 117%
- Survivors at day 30 (L1210 [4]): 0
- Optimal dose (P388 [5]): 140
- T/C (L1210 [11]): 123%
- T/C survival days (L1210 [18]): 8.6
- Survivors at day 30 (L1210 [12]): 0
- Weight change on day 5 (P388 [13]): -8.8%
- Cures (survivors/total) (P388 [14]): 2
- Therapeutic ratio [15]: 8

Compound: CC1(C)CC(NC(=O)NP(=O)(N2CC2(C)C)N2CC2(C)C)C(C)(C)N1O (stereo not given)
- ILS (L1210 [7]): 0%
- ILS (P388 [2]): 40%
- Optimal dose (P388 [5]): 90
- T/C survival days (L1210 [19]): 7
- Cures (survivors/total) (P388 [6]): 0
- T/C (L1210 [11]): 100%
- Survivors at day 30 (L1210 [12]): 0
- Weight change on day 5 (P388 [13]): 6.1%

Compound: CC1(C)CC(NC(=O)NP(=O)(N2CC2(C)C)N2CC2(C)C)CC(C)(C)N1 (stereo not given)
- ILS (L1210 [7]): 6%
- ILS (P388 [2]): 38%
- Optimal dose (P388 [5]): 140
- Cures (survivors/total) (P388 [6]): 0
- T/C (L1210 [11]): 106%
- Survivors at day 30 (L1210 [12]): 0
- T/C survival days (L1210 [20]): 7.4

Compound: CC1(C)CC(NC(=O)NP(=O)(N2CC2)N2CC2)C(C)(C)N1O (stereo not given)
- ILS (L1210 [7]): 28%
- ILS (P388 [2]): 142%
- ILS40 (mg kg-1 day-1) (P388 [9]): 19
- ILS max (P388 [10]): 232%
- Optimal dose (P388 [5]): 100
- T/C survival days (L1210 [21]): 9
- T/C (L1210 [11]): 128%
- Survivors at day 30 (L1210 [12]): 0
- Weight change on day 5 (P388 [13]): 5.6%
- Cures (survivors/total) (P388 [14]): 2
- Therapeutic ratio [15]: 5.3

Compound: CC1(C)CC(NC(=O)NP(=O)(N2CC2(C)C)N2CC2(C)C)CC(C)(C)N1O (stereo not given)
- ILS (L1210 [7]): 1%
- ILS (P388 [2]): 44%
- T/C survival days (L1210 [22]): 7.1
- Optimal dose (P388 [5]): 90
- Cures (survivors/total) (P388 [6]): 0
- T/C (L1210 [11]): 101%
- Survivors at day 30 (L1210 [12]): 0
- Weight change on day 5 (P388 [13]): 4.8%
